Usually pIC50 stands for the IC50 on a negative log10 scale, so that one unit is a factor of ten.

By UniProt entry, the sequences of proteins in these tests, tags left out.
UniProt P34913, whole entry: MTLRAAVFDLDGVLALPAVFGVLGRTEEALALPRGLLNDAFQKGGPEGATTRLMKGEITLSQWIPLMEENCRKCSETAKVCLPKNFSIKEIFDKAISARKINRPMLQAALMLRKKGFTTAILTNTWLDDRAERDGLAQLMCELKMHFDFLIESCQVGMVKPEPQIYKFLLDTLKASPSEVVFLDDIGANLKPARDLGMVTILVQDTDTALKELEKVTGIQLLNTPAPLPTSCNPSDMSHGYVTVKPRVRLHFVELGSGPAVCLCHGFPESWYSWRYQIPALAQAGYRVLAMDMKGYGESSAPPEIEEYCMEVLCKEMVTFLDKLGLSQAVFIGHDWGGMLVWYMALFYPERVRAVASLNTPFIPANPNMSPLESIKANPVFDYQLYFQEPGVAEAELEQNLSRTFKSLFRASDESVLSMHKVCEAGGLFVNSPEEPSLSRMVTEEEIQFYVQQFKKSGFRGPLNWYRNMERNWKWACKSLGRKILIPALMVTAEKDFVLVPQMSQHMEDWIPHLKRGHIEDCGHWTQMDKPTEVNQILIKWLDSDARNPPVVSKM

The structures appear in SMILES notation. pIC50: −log10 of the molar value.

The values that follow come from patent US20150065717A1, “NIPECOTIC ACID DERIVATIVE AND USE THEREOF FOR MEDICAL PURPOSES” (Toray Industries, Inc., priority 2012, published 2015).

The target of the assay is recombinant human sEH (Homo sapiens, UniProt P34913). Nature of the assay: In vitro evaluation test for sEH inhibitory activity. The conditions noted are these: recombinant human sEH 0.026 μg/mL, fluorescent substrate 6.25 μmol/L, room temperature. The protocol: According to the method described in a known document (Analytical Biochemistry, 2005, vol. 343, p. 66-75), the sEH inhibitory activity of each nipecotic acid derivative (I) or a pharmaceutically acceptable salt thereof was evaluated using human sEH.
A recombinant human sEH (final concentration, 0.026 μg/mL; Cayman) was incubated with each test compound in 25 mM Bis-Tris-HCl buffer (pH 7.0) supplemented with 0.1 mg/mL BSA at room temperature for 30 minutes. Thereafter, cyano(6-methoxynaphthalen-2-yl)methyl 2-(3-phenyloxiran-2-yl)acetate (final concentration, 6.25 μmol/L; Cayman) was added thereto as a fluorescent substrate, and the resulting mixture was incubated at room temperature for 20 minutes. The reaction was then stopped by addition of ZnSO4 (final concentration, 0.2 mol/L), and the fluorescence intensity was measured (Fusion α (Packard); Excitation: 330 nm, Emission:485 nm).
The fluorescence intensity observed with addition of neither sEH nor a test compound was regarded as the sEH enzymatic reaction rate of 0%, and the fluorescence intensity observed with addition of sEH but without addition of a test compound was regarded as the sEH enzymatic reaction rate of 100%. From the obtained fluorescence intensity, the sEH enzymatic reaction rate of each test compound was calculated to determine IC50.

For `CC(C)(C(=O)N1CCC[C@@H](C(=O)NCc2ccc(C#N)cc2OC(F)(F)F)C1)n1cccn1`, the pIC50 is 8.54.
